The subject of this assay is SNU449T7 cells. The experiment in a line: SNU449T7 liver cancer xenograft, Ab27-hz9 versus Ab27 and cetuximab. The format is in vivo. As to conditions: 300 μg/mouse/dose i.p. 3 or 4 times per week, 12 times in total; normal human IgG control. How it is done: SNU449T7 (1×10^7) cells were subcutaneously injected into the flanks of mice. When volumes reached about 100 mm^3, the tumor-bearing mice were randomized into control and treatment groups (n=6 per group). […] Normal human IgG was injected as a negative control.
Body weight and tumor volume were measured before injection of the antibody or drug. Tumor volumes were calculated using the formula width^2×length/2). Tumor masses were lysed as described in the literature for immunoblot analysis (J Clin Invest, 2008. 118 (4): pp. 1354-66) or tumor masses were fixed in 10% formalin and embedded in paraffin.
Formalin-fixed and paraffin-embedded 6-μm-thick tissue sections from xenograft tumors were processed for immunohistochemistry analysis as per the standard protocol. Sections were stained with anti-Ki67 antibody (SP6; Abcam) using the peroxidase technique. The proliferative index (%) was determined by calculating the number of Ki67^+ cells relative to the total number of cells, which consisted of at least 1,000 cells per field. Five randomly selected fields from tumor sections per mouse were analyzed using ImageJ software.
The antitumor efficacy of Ab27-hz9 was evaluated in the SNU449T7 xenograft model. SNU449T7 cells (3×10^6) were subcutaneously injected into the flanks of mice.

For cetuximab, the “inhibited tumor growth (tumor volume)” value was determined as 59%.

For the origin of these results see patent US12110325B2, “TM4SF5-targeting humanized antibody and use thereof” (KOREA RESEARCH INSTITUTE OF BIOSCIENCE AND BIOTECHNOLOGY, priority 2022, dated 2024).
